From patent publication US20040053822A1, “Inducing cellular immune responses to mage2/3 using peptide and nucleic acid compositions” (priority 2002, published 2004)
pIC50: −log10 of the molar value. Where two headings read alike, the source gives them in different places.

Legend:
HLA-A*0301 = HLA-A*0301 (Homo sapiens, UniProt P04439); test: Purified HLA class I peptide binding assay, A*0301; settings: binding affinity, HLA-A3 supermotif-bearing peptides
[1] = system: A3-supertype alleles (A*0301, A*1101, A*3101, A*3301, and A*6801); test: A3-supertype cross-reactive binding (five alleles); design: species or system human
HLA-A*2402 = HLA-A*2402 (Homo sapiens, UniProt P04439, D101N/D140Y/D185E/E176V/E190D/F33S/G103R/G107R/I119L/I121M/I306V/K335N/L105A/L180Q/L300P/N151K/N90K/Q86E/Q94H/R106L/R138H/R89G/T104I/T345S/V100E/W191G/Y123F); test: Purified HLA class I peptide binding assay, A*2402
HLA-A*6801 = HLA-A*6801 (Homo sapiens, UniProt P04439, A269V/D185E/E176V/E277Q/E87N/F33Y/G231S/I121M/I166T/I218V/L180W/L300P/L318F/N151K/P208A/P217A/Q86R/R169H/T345S); test: Purified HLA class I peptide binding assay, A*6801; settings: binding affinity, HLA-A3 supermotif-bearing peptides; read-out: A*6801 nM
HLA-A*3101 = HLA-A*3101 (Homo sapiens, UniProt P04439, A270S/D185E/E176V/E277Q/F33T/G231S/G80R/H175R/I121M/I218V/I322F/K168Q/L300P/L318F/M331R/P217A/Q94H/R138Q/T323A/T345S/T97I/V358M); test: Purified HLA class I peptide binding assay, A*3101; settings: binding affinity, HLA-A3 supermotif-bearing peptides
HLA-A*1101 = HLA-A*1101 (Homo sapiens, UniProt P04439, A114D/D185E/E176A/F33Y/L180Q/S129P/T187R); test: Purified HLA class I peptide binding assay, A*1101
HLA-A*3301 = HLA-A*3301 (Homo sapiens, UniProt P04439, A270S/D185E/E176V/E277Q/E87N/F33T/G231S/H175R/I121M/I218V/I322F/K168Q/K210R/L300P/L318F/M331R/P217A/Q86R/Q94H/R138Q/T323A/T345S/T97I/V358M/Y195H); test: Purified HLA class I peptide binding assay, A*3301; settings: binding affinity, HLA-A3 supermotif-bearing peptides
[2] = HLA-A24 motif-bearing peptides, Table XXVIa
[3] = read-out: A*[…], A24 motif-bearing peptides, Table XXVIB

**Q.** `CC(C)C[C@H](NC(=O)[C@@H](NC(=O)[C@@H](N)CO)C(C)C)C(=O)N[C@@H](CCC(=O)O)C(=O)N[C@H](C(=O)N[C@@H](Cc1ccccc1)C(=O)N[C@@H](CCC(=O)O)C(=O)NCC(=O)N[C@@H](CCCNC(=N)N)C(=O)O)C(C)C` was tested. Which pIC50 (HLA-A*0301) did it give?
**A.** < 5.00

**Q.** What about the “No. of A3 Alleles Crossbound” value [1] of the same compound?
**A.** 4

**Q.** `CC(C)C[C@H](NC(=O)[C@@H]1CCCN1C(=O)[C@@H]1CCCN1C(=O)[C@H](Cc1ccc(O)cc1)NC(=O)[C@@H](N)CO)C(=O)N[C@@H](Cc1c[nH]cn1)C(=O)N[C@@H](CCC(=O)O)C(=O)N[C@@H](Cc1c[nH]c2ccccc12)C(=O)O` was tested. Which pIC50 (HLA-A*2402; [2]) did it give?
**A.** 6.54

**Q.** With `CC(C)C[C@H](NC(=O)[C@@H](NC(=O)[C@H](CCCCN)NC(=O)[C@@H](NC(=O)[C@H](Cc1ccc(O)cc1)NC(=O)[C@@H](N)CO)C(C)C)C(C)C)C(=O)N[C@@H](Cc1c[nH]cn1)C(=O)N[C@@H](Cc1c[nH]cn1)C(=O)N[C@H](C(=O)N[C@@H](Cc1ccccc1)C(=O)O)[C@@H](C)O` as the compound, how does the pIC50 (HLA-A*2402; [2]) read?
**A.** 7.47

**Q.** With `CC(C)C[C@H](NC(=O)[C@H](CC(=O)O)NC(=O)[C@@H]1CCCN1C(=O)[C@H](Cc1ccc(O)cc1)NC(=O)[C@@H](N)[C@@H](C)O)C(=O)N[C@@H](CCC(=O)O)C(=O)N[C@@H](CO)C(=O)N[C@@H](CCC(=O)O)C(=O)N[C@@H](Cc1ccccc1)C(=O)O` as the compound, how does the pIC50 (HLA-A*2402; [2]) read?
**A.** 6.66

**Q.** With `CC[C@H](C)[C@H](NC(=O)[C@@H](NC(=O)[C@@H]1CCCN1C(=O)[C@H](Cc1ccccc1)NC(=O)[C@H](Cc1ccccc1)NC(=O)[C@@H](N)Cc1ccc(O)cc1)C(C)C)C(=O)N[C@@H](Cc1ccccc1)C(=O)N[C@@H](CO)C(=O)N[C@@H](CCCCN)C(=O)O` as the compound, how does the pIC50 (HLA-A*6801) read?
**A.** 6.24

**Q.** What about the pIC50 (HLA-A*3101) of the same compound?
**A.** 6.50

**Q.** And the pIC50 (HLA-A*0301)?
**A.** 5.30

**Q.** And the “No. of A3 Alleles Crossbound” value [1]?
**A.** 3

**Q.** Which results are given for `CC[C@H](C)[C@H](NC(=O)[C@@H](NC(=O)[C@@H]1CCCN1C(=O)[C@H](Cc1ccccc1)NC(=O)[C@@H](NC(=O)[C@@H](N)Cc1ccc(O)cc1)C(C)C)C(C)C)C(=O)N[C@@H](Cc1ccccc1)C(=O)N[C@@H](CO)C(=O)N[C@@H](CCCNC(=N)N)C(=O)O`?
**A.** pIC50 (HLA-A*1101): 8.59; pIC50 (HLA-A*3101): 8.22; pIC50 (HLA-A*3301): 7.89

**Q.** How did the pIC50 (HLA-A*2402; [3]) turn out when `CC(C)C[C@H](NC(=O)[C@@H]1CCCN1C(=O)[C@@H]1CCCN1C(=O)[C@H](Cc1ccc(O)cc1)NC(=O)[C@@H](N)CO)C(=O)N[C@@H](Cc1c[nH]cn1)C(=O)N[C@@H](CCC(=O)O)C(=O)N[C@@H](Cc1c[nH]c2ccccc12)C(=O)O` [Peptide 52.0078] was run?
**A.** 6.54

**Q.** `CC(C)C[C@H](NC(=O)[C@H](CCC(=O)O)NC(=O)[C@@H](NC(=O)[C@H](Cc1ccc(O)cc1)NC(=O)[C@@H](N)CCCCN)C(C)C)C(=O)N[C@H](C(=O)N[C@@H](Cc1c[nH]cn1)C(=O)N[C@@H](Cc1ccccc1)C(=O)N[C@@H](Cc1ccccc1)C(=O)O)C(C)C` [Peptide 57.0061] was tested. Which pIC50 (HLA-A*2402; A24 motif-bearing peptides, Table XXVIB) did it give?
**A.** 8.15

**Q.** With `CC[C@H](C)[C@H](N)C(=O)N[C@@H](Cc1ccc(O)cc1)C(=O)N[C@@H](CO)C(=O)N[C@@H](CCCCN)C(=O)N[C@@H](C)C(=O)N[C@@H](CO)C(=O)N[C@@H](CCC(=O)O)C(=O)N[C@@H](Cc1ccc(O)cc1)C(=O)N[C@@H](Cc1ccccc1)C(=O)O` [Peptide 57.0062] as the compound, how does the pIC50 (HLA-A*2402; [3]) read?
**A.** 7.84

**Q.** `CC(C)C[C@H](NC(=O)[C@H](CC(=O)O)NC(=O)[C@@H]1CCCN1C(=O)[C@H](Cc1ccc(O)cc1)NC(=O)[C@@H](N)[C@@H](C)O)C(=O)N[C@@H](CCC(=O)O)C(=O)N[C@@H](CO)C(=O)N[C@@H](CCC(=O)O)C(=O)N[C@@H](Cc1ccccc1)C(=O)O` [Peptide 57.0065] was tested. Which pIC50 (HLA-A*2402; [3]) did it give?
**A.** 6.66

**Q.** `CC[C@H](C)[C@H](NC(=O)[C@@H](NC(=O)[C@@H](NC(=O)[C@H](CO)NC(=O)[C@H](Cc1ccc(O)cc1)NC(=O)[C@@H](N)CO)[C@@H](C)O)[C@@H](C)O)C(=O)N[C@@H](CC(N)=O)C(=O)N[C@@H](Cc1ccc(O)cc1)C(=O)N[C@H](C(=O)N[C@@H](Cc1ccccc1)C(=O)O)[C@@H](C)O` [Peptide 57.0084] was tested. Which pIC50 (HLA-A*2402; [3]) did it give?
**A.** 7.83

**Q.** With `CC(C)C[C@H](NC(=O)[C@@H](NC(=O)[C@H](CCCCN)NC(=O)[C@@H](NC(=O)[C@H](Cc1ccc(O)cc1)NC(=O)[C@@H](N)CO)C(C)C)C(C)C)C(=O)N[C@@H](Cc1c[nH]cn1)C(=O)N[C@@H](Cc1c[nH]cn1)C(=O)N[C@H](C(=O)N[C@@H](Cc1ccccc1)C(=O)O)[C@@H](C)O` [Peptide 57.0088] as the compound, how does the pIC50 (HLA-A*2402; [3]) read?
**A.** 7.46
